Results reported in ChEMBL document CHEMBL4610124, “Novel Thienopyrimidine Inhibitors of Leishmania N-Myristoyltransferase with On-Target Activity in Intracellular Amastigotes” (J Med Chem, 2020).

System: human NMT1 versus Leishmania donovani NMT
Assay: Selectivity ratio of IC50 for human NMT1 to IC50 for Leishmania donovani NMT
Type: toxicity
Conditions: read-out: Ratio IC50

Row | Structure (SMILES) | selectivity ratio
1 | CN(CCC#N)c1nc(N(C)[C@H]2C[C@H]3CC[C@@H](C2)N3C)nc2ccccc12 | > 6
2 | CN(CCC#N)c1nc(N(C)C2CCNCC2)nc2ccccc12 | > 88
